Source: US20180273528A1 (LES LABORATOIRES SERVIER, priority 2015, published 2018)

Target: T1, CLK1 (Homo sapiens, UniProt P49759)
T1 construct: full-length human kinases from Carna Biosciences; purchased Carna Biosciences 04-126
T1 sequence (P49759 1-526 isoform P49759-3): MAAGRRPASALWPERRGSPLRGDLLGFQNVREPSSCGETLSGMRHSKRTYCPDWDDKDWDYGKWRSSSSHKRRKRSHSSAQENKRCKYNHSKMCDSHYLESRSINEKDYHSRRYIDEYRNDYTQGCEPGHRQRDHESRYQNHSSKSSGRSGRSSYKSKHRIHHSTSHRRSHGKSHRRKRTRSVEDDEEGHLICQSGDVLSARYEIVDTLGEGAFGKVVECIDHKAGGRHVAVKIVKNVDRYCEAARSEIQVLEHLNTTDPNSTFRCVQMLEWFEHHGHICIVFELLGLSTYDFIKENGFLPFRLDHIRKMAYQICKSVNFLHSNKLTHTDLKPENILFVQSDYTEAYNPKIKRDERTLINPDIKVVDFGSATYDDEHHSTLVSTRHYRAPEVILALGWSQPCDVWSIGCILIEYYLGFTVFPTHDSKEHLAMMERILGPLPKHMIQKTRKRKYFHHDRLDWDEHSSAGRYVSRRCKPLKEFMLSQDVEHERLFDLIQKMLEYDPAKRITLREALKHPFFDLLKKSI
Experiment: Kinase TR-FRET assay, CLK1
Assay type: biochemical
Settings: full-length human kinase, 10 μM ATP
Method: Inhibition of the enzymatic activity of human kinases was evaluated in a Time-Resolved Fluorescence Resonance Energy Transfer (TR-FRET) assay in 384-well reaction plates. […] Test compounds of the invention were added in reaction buffer at a range of concentrations from 0.1 nM to 30 μM. Following addition of EDTA (Sigma E7889, 10 mM) to stop the reaction, Europium-labelled mouse monoclonal antibody recognizing phospho-Thr232 in MBP (Perkin Elmer TRF0201, 1 nM) was added.

**Q.** `Cc1nc2ccc(-c3cc(N)nc(N)c3)nc2n1C(C)C` [Example 53, 4-[2-methyl-3-(propan-2-yl)-3H-imidazo[4,5-b]pyridin-5-yl]pyridine-2,6-diamine] was tested. Which IC50 did it give?
**A.** Its IC50 is 0.02 µM.
